Protein sequences, listed by entry. Tags and fused reporters are not part of them.
UniProt P10415, whole entry: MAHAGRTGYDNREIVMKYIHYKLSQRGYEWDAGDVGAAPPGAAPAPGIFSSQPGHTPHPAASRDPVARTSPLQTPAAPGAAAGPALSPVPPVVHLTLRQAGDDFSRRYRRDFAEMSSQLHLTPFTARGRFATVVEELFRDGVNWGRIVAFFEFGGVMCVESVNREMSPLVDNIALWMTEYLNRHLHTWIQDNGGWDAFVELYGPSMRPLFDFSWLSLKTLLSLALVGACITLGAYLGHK

According to ChEMBL document CHEMBL3792281, “Selective inhibitors of Bcl-2 and Bcl-xL: Balancing antitumor activity with on-target toxicity” (Bioorg Med Chem Lett, 2016):

Target: Apoptosis regulator Bcl-2 (Homo sapiens, UniProt P10415)
Assay: Binding affinity to Bcl-2 (unknown origin) by fluorescence polarization assay

`CC1(C)CCC(c2ccc(Cl)cc2)=C(CN2CCN(c3ccc(C(=O)NS(=O)(=O)c4ccc(N[C@H](CCN5CCOCC5)CSc5ccccc5)c(S(=O)(=O)C(F)(F)F)c4)cc3)CC2)C1` [NAVITOCLAX] was tested, and the Ki was < 1 nM.
